The numbers were not newly measured in patent US9133199B2, “Pyrimidine derivatives as protein kinase inhibitors” (Cyclacel Limited, priority 2007, dated 2015), which cites them from elsewhere.

This series deals with human PLK1 (Homo sapiens (Human), UniProt P53350). To be noted: ATP concentration of 10 μM; read-out: IC50, phosphorylation of CDC25C by recombinant PLK1; cited from earlier work.

As to scytonemin, the IC50 is roughly 2000 nM.

A word on the IC50: it is the concentration that inhibits the measured activity by half.
